Test results taken from US20100040597A1.

Columns and labels:
[1] = biological target: soluble TM (thrombomodulin); experiment: cuvette biosensor, thrombin mutant immobilised on NHS-activated CM dextran (about 1,800 arc), 50 nM soluble TM, 10 min
[2] = biological target: soluble TM (thrombomodulin); experiment: cuvette biosensor, 50 nM soluble TM, normalised to 1000 arc sec of immobilised thrombin mutant
[3] = biological target: soluble TM (thrombomodulin); experiment: cuvette biosensor, thrombin mutant immobilised on NHS-activated CM dextran (about 1,365 arc), 50 nM soluble TM, 10 min

| TM adsorbed after 10 minutes [1] [arc sec] | TM adsorbed, immobilized amount set to 1000 arc sec [2] [arc sec] | TM adsorbed after 10 minutes [3] [arc sec] | Substance |
| --- | --- | --- | --- |
| 18 | 10 | – | 65A43A205A thrombin (from UniProt P00734 315-363; P00734 364-622) (enzyme) |
| – | 5.8 | 8 | 69Q65A43A205A thrombin (from UniProt P00734 315-363; P00734 364-622) (enzyme) |
